Our source for the response values is PubChem BioAssay AID602197 (NMMLSC, 2012).

The experiment is described as follows: V-ATPase regulators in yeast, one dose – S. cerevisiae, pH-sensitive GFP, second cherry-pick, confirmation (AID 602197).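 Also: plate controls were vehicle wells for no effect and positive control wells for full effect.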 The following applies: S. cerevisiae pHLuorin cytosolic pH, V-ATPase proton transport; at 10 µM; active compounds read high.

This is a selection; strong and weak results do not stand in their true shares. Activity calls are given as the source filed them. Rule as the data show it: active = response above about 24%; inactive = the rest.

For the compound `O=P(Nc1ccccn1)(c1ccc(Br)cc1)c1ccc(Br)cc1`, the response is inactive: 1.85%.
